Experimental data: US20250195504A1, “NALTREXAMINE DERIVATIVES BEARING 5-MEMBER HETEROCYCLIC RING SYSTEMS AND OPIOID RECEPTOR MODULATORS” (VIRGINIA COMMONWEALTH UNIVERSITY, priority 2022, published 2025)
Counter-ions that a name gives are not always drawn.

The chains behind the UniProt entries cited, without tags or fusion partners. Where a name states a change or a piece, a line headed by the entry shows the natural chain unless it says otherwise.
UniProt P33534: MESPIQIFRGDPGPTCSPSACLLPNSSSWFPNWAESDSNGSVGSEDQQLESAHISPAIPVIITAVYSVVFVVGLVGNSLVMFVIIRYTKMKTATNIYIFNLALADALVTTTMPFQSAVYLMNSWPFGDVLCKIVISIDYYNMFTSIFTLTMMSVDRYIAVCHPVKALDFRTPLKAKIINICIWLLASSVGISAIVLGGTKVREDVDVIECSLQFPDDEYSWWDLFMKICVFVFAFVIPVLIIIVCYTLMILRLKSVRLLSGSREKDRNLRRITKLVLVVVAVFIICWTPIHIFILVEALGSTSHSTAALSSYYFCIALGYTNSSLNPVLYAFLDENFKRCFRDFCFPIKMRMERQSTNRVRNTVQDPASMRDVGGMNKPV

Molecular target: KOR (Mus musculus, UniProt P33534)
Experiment: KOR [35S]GTPγS binding assay
Type: biochemical
Set-up: expressed in transfected cells; host or cells: CHO

`O=C(N[C@H]1CC[C@@]2(O)[C@H]3Cc4ccc(O)c5c4[C@@]2(CCN3CC2CC2)[C@H]1O5)c1cccs1` [Example 1 compound 25, 17-Cyclopropylmethyl-3,14β-dihydroxy-4,5α-epoxy-6α-(2′-thienylcarboxamido)morphinan hydrochloride] was tested. Which EC50 did it give?
Its EC50 is 1.72 ± 0.24 nM.
